Results as given in article PMC11412900 (Molecular Psychiatry, 2024).

Protein sequences, listed by entry. Tags and fused reporters are not part of them.
UniProt P28223, whole entry: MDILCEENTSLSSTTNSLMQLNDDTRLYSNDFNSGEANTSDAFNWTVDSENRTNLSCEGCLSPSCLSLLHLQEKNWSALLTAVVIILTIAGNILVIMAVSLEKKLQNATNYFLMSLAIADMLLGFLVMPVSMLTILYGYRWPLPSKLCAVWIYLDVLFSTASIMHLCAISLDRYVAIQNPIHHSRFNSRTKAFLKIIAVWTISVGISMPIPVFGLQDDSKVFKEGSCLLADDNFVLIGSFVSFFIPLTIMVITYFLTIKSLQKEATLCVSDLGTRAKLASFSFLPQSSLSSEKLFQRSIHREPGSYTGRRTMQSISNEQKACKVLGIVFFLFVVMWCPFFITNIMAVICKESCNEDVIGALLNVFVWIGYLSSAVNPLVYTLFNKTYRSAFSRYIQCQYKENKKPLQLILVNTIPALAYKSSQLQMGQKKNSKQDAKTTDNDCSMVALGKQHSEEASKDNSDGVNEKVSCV

Target: T1, h5-HT2AR (Homo sapiens, UniProt P28223)
T1 construct: purchased Perkin Elmer, Inc. (Waltham, MA, USA)
Assay: biochemical
Format: binding
Description: Binding assays were performed as described previously. Briefly, membrane preparations expressing h5-HT1AR, h5-HT2AR or hSERT (see Supplementary Material) were incubated with radiolabeled selective ligands 0.4 nM [^3H]8-OH-DPAT, 1 nM [^3H]ketanserin or 3 nM [^3H]imipramine, respectively. The drugs were diluted in the corresponding binding buffer and tested at increasing concentrations in duplicate. Binding reactions were performed in tubes containing the drug dilutions; 25 μl of the corresponding radioligand; and the membranes (10 μg and 5 μg/500 μL for 5-HT1AR and 5-HT2AR, respectively, and 15 μg/100 μL for hSERT), all diluted in binding buffer. […] Incubation was performed for 1 h at 27 °C for 5-HT1A/2AR and 22 °C for hSERT, according to the manufacturer’s protocol (Perkin Elmer, Inc., Waltham, MA, USA) and previous studies - saturation and kinetic experiments, respectively. The binding reactions were stopped by rapid filtration through GF/B glass microfiber filters pre-soaked with 0.5% polyethyleneimine and washing with ice-cold wash buffer. The filters were placed into vials and scintillation cocktail was added. The trapped radioactivity was quantified. Specific binding was defined as the difference between total binding (binding buffer alone) and non-specific binding. Experiments were conducted per duplicate for at least three independent experiments.

COc1ccc2[nH]cc(CCN(C(C)C)C(C)C)c2c1 [5-MeO-DIPT, 5-methoxy-N,N-diisopropyltryptamine]
Ki: 399 ± 49 nM
